Reference: patent publication US11666578B2, “Small molecule inhibitors of CDK12/CDK13” (The Scripps Research Institute, priority 2018, dated 2023)

Test system: BCM-3613 tumors
Assay: PDX efficacy study, BCM-3613 orthotopic tumors
Assay type: in vivo, SCID/Beige mice
Conditions: BCM-3613 trastuzumab-resistant PDX, vs vehicle
Method: BCM-3613 is a PDX model derived from a patient that acquired resistance to trastuzumab. BCM-3613 explants were implanted into the cleared mammary fat-pad of SCID/Beige recipient mice.
Studies were performed to determine the efficacy of the highly specific dual CDK12/CDK13 or single CDK13 inhibitors in pre-clinical models of human breast cancer. Four patient derived orthotopic breast xenograft models were used to validate targeting CDK12/13 or CDK13 alone as an anti-cancer strategy in subsets of breast cancer. […] Experiments therefore included 7-12 tumor bearing mice per experimental or control (vehicle) cohort with mice randomized prior to treatment to determine random sampling such that the median tumor size between cohorts was the same. All tumors sizes were measured throughout the duration of the experiment and graphed in figures without excluding any samples. For survival analyses, mice were euthanized when moribund, and/or when tumors became ulcerated or reached greater than 1.0 cm^3. […]
All animal studies are approved by the Scripps Florida IACUC. […] Tumor growth was measured in two dimensions using calipers and tumor volume calculated (v=0.5×length×width^2). […] Growth rates were monitored at indicated times and tumors were harvested for histopathology and lysate preparation for western blotting once vehicle treated tumors reached 0.8-1 cm^3.

In the case of trastuzumab [reference compound], the “Tumor growth, single agent” value is reported as “no efficacy over vehicle treated cohort”.
